Results published in publication PMC10444810, “Induction of open-form bile canaliculus formation by hepatocytes for evaluation of biliary drug excretion” (Communications Biology, 2023).
Several values for one entry are separate records, joined by “and”; a condition that tells them apart may be missing. Identical values can stand only once. Like-named read-outs stand apart in the source and are kept apart here.

Experiments:
[1] = cited from earlier work
[2] = test system: icHep (PXB-cells on claudin-1, -2, -3, -9 coated Transwell permeable support); assay: icHep permeation assay (sinusoidal to bile side) to estimate drug biliary excretion clearance; conditions: for In vitro CLbile, app: single replicates; for In vitro CLbile, int / Predicted in vivo CLbile, int: single replicate
[3] = human, cited from earlier work
[4] = test system: sandwich-cultured PXB-cells; assay: Biliary excretion activity (BEI) in sandwich-cultured PXB-cells; conditions: for Predicted in vivo CLbile, int, Mean: mean of 3 replicates; for In vitro CLbile, int / Predicted in vivo CLbile, int: replicates # 1-3; for Predicted in vivo CLbile, int: scaled from in vitro CLbile; for BEI (%) Mean / BEI (%): PXB-cells (JFC); for BEI (%) Mean: mean of 3; for BEI (%): single replicate
[5] = Reported human in vivo biliary excretion clearance and intrinsic clearance estimated from it (Eq. 4)
[6] = Control, block with icHep (HUM181001B)
[7] = Control, block with icHep (JFC)

For SN-38, the fp, unbound fraction of the plasma protein ([1]; reported value) is listed as 0.00887, the fp ([1]; unbound fraction of the plasma protein) is listed as 0.00887 and the fp ([1]; unbound fraction, reported value) is listed as 0.00887. The “In vitro CLbile, app, Mean” value [2, 6] was 0.805 ul/min/106 cells, the “In vitro CLbile, app” value [2, 6] was 0.822 ul/min/106 cells and 0.748 ul/min/106 cells and 0.845 ul/min/106 cells and the “In vitro CLbile, app, Mean” value [2, 7] was 0.877 ul/min/106 cells. The “In vitro CLbile, app” value [2, 7] was 0.845 ul/min/106 cells and 0.923 ul/min/106 cells and 0.862 ul/min/106 cells, the “In vitro CLbile, int” value ([2]; icHep (HUM181001B)) was 2.26 ul/min/106 cells and 2.43 ul/min/106 cells and 2.70 ul/min/106 cells and the “Predicted in vivo CLbile, int” value ([2]; icHep (HUM181001B)) was 488 mL/min and 525 mL/min and 582 mL/min. The “Biliary excretion clearance, in vitro, observed, CLbile, int” value ([2]; icHep (HUM181001B), CLbile,app of icHep minus control cells) was 2.46 ± 0.219 μl/min/10^6 cells, the “In vitro CLbile, app, Mean” value ([2]; icHep (HUM181001B)) was 3.27 ul/min/106 cells and the “In vitro CLbile, app” value ([2]; icHep (HUM181001B)) was 3.08 ul/min/106 cells and 3.18 ul/min/106 cells and 3.54 ul/min/106 cells. For the same substance, the “In vitro CLbile, int” value ([2]; icHep (JFC)) was 5.17 ul/min/106 cells and 5.32 ul/min/106 cells and 3.53 ul/min/106 cells, the “Predicted in vivo CLbile, int” value ([2]; icHep (JFC)) was 1117 mL/min and 1150 mL/min and 762 mL/min and the “In vitro CLbile, app, Mean” value ([2]; icHep (JFC)) was 5.55 ul/min/106 cells. The “In vitro CLbile, app” value ([2]; icHep (JFC)) was 6.02 ul/min/106 cells and 6.25 ul/min/106 cells and 4.39 ul/min/106 cells, the “Observed in vivo CLbile” value ([3]; reported in vivo biliary excretion clearance) was 42.5 mL/min and the “Observed in vivo CLbile” value ([3]; reported value) was 42.5 mL/min. The “Predicted in vivo CLbile, int, Mean” value ([4]; PXB-cells (JFC) B-CLEAR 2 min) was 2873 mL/min, the “In vitro CLbile, int” value ([4]; PXB-cells (JFC) B-CLEAR 2 min) was 19.4 ul/min/106 cells and 13.4 ul/min/106 cells and 7.09 ul/min/106 cells and the “Predicted in vivo CLbile, int” value ([4]; PXB-cells (JFC) B-CLEAR 2 min) was 4200 mL/min and 2888 mL/min and 1531 mL/min. The “Predicted in vivo CLbile, int, Mean” value ([4]; PXB-cells (JFC) B-CLEAR 5 min) was 5000 mL/min, the “Predicted in vivo CLbile, int, Mean” value ([4]; PXB-cells (JFC) B-CLEAR 10 min) was 1090 mL/min and the “In vitro CLbile, int” value ([4]; PXB-cells (JFC) B-CLEAR 10 min) was 3.68 ul/min/106 cells and 4.29 ul/min/106 cells and 7.17 ul/min/106 cells. For the same substance, the “Predicted in vivo CLbile, int” value ([4]; PXB-cells (JFC) B-CLEAR 10 min) was 795 mL/min and 926 mL/min and 1549 mL/min, the “Predicted in vivo CLbile, int, Mean” value ([4]; PXB-cells (JFC) B-CLEAR 20 min) was 1099 mL/min and the “In vitro CLbile, int” value ([4]; PXB-cells (JFC) B-CLEAR 20 min) was 6.44 ul/min/106 cells and 4.98 ul/min/106 cells and 3.85 ul/min/106 cells. For the same substance, the “Predicted in vivo CLbile, int” value ([4]; PXB-cells (JFC) B-CLEAR 20 min) was 1390 mL/min and 1075 mL/min and 832 mL/min, the “BEI (%) Mean” value ([4]; 2 min) was 51.8% and the “BEI (%)” value ([4]; 2 min) was 63.0% and 54.0% and 38.3%. For the same substance, the “BEI (%) Mean” value ([4]; 5 min) was 80.9%, the “BEI (%)” value ([4]; 5 min) was 82.4% and 71.4% and 89.0% and the “BEI (%) Mean” value ([4]; 10 min) was 67.6%. The “BEI (%)” value ([4]; 10 min) was 61.8% and 65.3% and 75.9%, the “BEI (%) Mean” value ([4]; 20 min) was 81.2% and the “BEI (%)” value ([4]; 20 min) was 85.0% and 81.4% and 77.2%. For the same substance, the “Biliary excretion clearance, in vivo, predicted, CLbile, int” value ([4]; sandwich-cultured PXB-cells (JFC), mean ± S.D., n = 3) was 1099 ± 280 mL/min, the “Observed in vivo CLbile, int” value ([5]; estimated from observed CLbile with fp, Rb, Qh 1400 ml/min) was 4911 mL/min and the “Observed in vivo CLbile, int” value ([5]; estimated from observed in vivo CLbile with fp, Rb and Qh 1400 ml/min) was 4911 mL/min.
